## Apparent affinities of Ab-14 variants for a coronavirus HR2 peptide

Data: MIT Lincoln Laboratory AlphaSeq set, Li et al. 2023, doi:10.1038/s41467-023-39022-2, as distributed in FLAb.

Target: peptide PDVDLGDISGINAS, taken from heptad repeat 2 (HR2) of SARS-CoV-2 spike.

Ab-14 is the parent antibody, in scFv form: VH, then a 15-residue (Gly4Ser)3 linker, then VL. The light chain is unchanged in all variants.
VH: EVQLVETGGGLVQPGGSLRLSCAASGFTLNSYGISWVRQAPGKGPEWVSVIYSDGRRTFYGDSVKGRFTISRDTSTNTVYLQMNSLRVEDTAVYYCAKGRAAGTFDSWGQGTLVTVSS
VL: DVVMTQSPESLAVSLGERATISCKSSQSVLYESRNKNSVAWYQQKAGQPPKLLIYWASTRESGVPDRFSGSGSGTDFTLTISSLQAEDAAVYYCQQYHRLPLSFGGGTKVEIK

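This is the validation round: designs drawn from the data on random variants, tested in the same kind of assay. Several design methods are mixed in this list. AlphaSeq pools MATa yeast showing the antibodies with MATalpha yeast showing the peptide. Pairs that bind mate more often; barcode pairs of the diploids are counted by sequencing. Each replicate has its own calibration line, from reference interactions of the BCL2 family. Mating was done six times.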

Sequences are complete VH domains. Variants here have at most six changes. The Kd shown is the geometric mean over detected replicates; a lower Kd is a better binder. "nd" marks a missing value. The strain was present, yet no cells mated with the target were sequenced in any replicate, which points to weak or no binding.

VH	Kd (apparent)	seen in
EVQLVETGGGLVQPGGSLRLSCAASMFSLNSYGISWVRQAPGKGPEWVSVIYSDGRRTFYGDSVKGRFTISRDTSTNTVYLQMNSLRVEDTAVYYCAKGRAAGTFDHWGQGTLVTVSS	nd	0/6
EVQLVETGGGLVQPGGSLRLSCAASGFTLDSYGISWVRQAPGKGPEWVSVIYSDGRRTFYGDSIKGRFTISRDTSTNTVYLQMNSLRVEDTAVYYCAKGRAAGTALSWGQGTLVTVSS	nd	0/6
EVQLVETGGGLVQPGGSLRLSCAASGFDLNEYGISWVRQAPGKGPEWVSVIYSDGRRTFYGDQVKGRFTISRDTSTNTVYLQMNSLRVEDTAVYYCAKGRTAGTFDSWGQGTLVTVSS	nd	0/6
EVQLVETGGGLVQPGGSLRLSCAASGFVLNDYGISWVRQAPGKGPEWVSVIYSDGRRTFYADSVKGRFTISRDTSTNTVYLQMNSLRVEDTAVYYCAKGRTAGTFDSWGQGTLVTVSS	1.0 nM	6/6
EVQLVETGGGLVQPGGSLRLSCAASGQTLNSYGISWVRQAPGKGPEWVSVIYADGHRRFYGDSVKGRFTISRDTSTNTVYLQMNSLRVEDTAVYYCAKGRAADTFDSWGQGTLVTVSS	nd	0/6
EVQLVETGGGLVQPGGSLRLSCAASGFDLNEYGISWVRQAPGKGPEWVSVIYADGRRTFYADSVKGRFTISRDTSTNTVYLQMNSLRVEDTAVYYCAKGTAAGTFDQWGQGTLVTVSS	540 pM	6/6
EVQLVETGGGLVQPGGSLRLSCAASGFELNSYGISWVRQAPGKGPEWVSVIYSDGRRTFYGDSVSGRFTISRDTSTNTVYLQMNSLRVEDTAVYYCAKGRAAGTFDSWGQGTLVTVSS	7.1 nM	6/6
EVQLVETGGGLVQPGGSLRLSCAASGFSLNSYGISWVRQAPGKGPEWVSVIYSDGRRTFYGDSVKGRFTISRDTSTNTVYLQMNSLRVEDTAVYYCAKGNAAGTFDLWGQGTLVTVSS	1.5 nM	6/6
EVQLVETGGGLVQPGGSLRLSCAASGFQLNEYGISWVRQAPGKGPEWVSVIYSDGRRTFYGDSVKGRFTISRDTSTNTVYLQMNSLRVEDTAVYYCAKGKAAGTFDSWGQGTLVTVSS	4.9 nM	5/6
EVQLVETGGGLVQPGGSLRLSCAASGFTLDEYGISWVRQAPGKGPEWVSVIYSDGRRTFYGDAVKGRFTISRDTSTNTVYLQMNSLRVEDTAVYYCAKGRAAGTFDSWGQGTLVTVSS	1.5 nM	3/6
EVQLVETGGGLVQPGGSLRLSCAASHFTLNSYGISWVRQAPGKGPEWVSVIYADGRRTFYGDSVKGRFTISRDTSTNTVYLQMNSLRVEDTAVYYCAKGRAAGTFDSWGQGTLVTVSS	11 nM	6/6
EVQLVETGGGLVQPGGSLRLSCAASGFTLNSYGISWVRQAPGKGPEWVSVIYSDGRRTFYGDSVKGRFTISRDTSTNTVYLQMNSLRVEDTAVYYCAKGRAAFTSDSWGQGTLVTVSS	nd	0/6
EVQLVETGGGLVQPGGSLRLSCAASGFDLNAYGISWVRQAPGKGPEWVSVIYSDGRRTFYGDSVKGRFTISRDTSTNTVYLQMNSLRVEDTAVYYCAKGQAAGTFDSWGQGTLVTVSS	2.6 nM	6/6
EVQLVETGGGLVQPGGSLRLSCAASGFSLNLYGISWVRQAPGKGPEWVSVIYSDGRRTFYGDSVKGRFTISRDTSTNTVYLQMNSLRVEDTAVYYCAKGRAQGTFDSWGQGTLVTVSS	nd	0/6
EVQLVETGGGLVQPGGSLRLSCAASGFTLNNYGISWVRQAPGKGPEWVSVIYSDGRRTAYQDSVKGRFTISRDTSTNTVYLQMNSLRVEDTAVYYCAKGRAAGTFDSWGQGTLVTVSS	13 nM	4/6
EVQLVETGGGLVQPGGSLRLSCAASNFTLESYGISWVRQAPGKGPEWVSVIYADGRRTFYGDSVKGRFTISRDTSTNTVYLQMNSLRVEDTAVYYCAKGRAAGTFMSWGQGTLVTVSS	290 nM	3/6
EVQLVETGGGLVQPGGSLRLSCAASGFTLNEYGISWVRQAPGKGPEWVSVIYSDGRRTFYSDSVKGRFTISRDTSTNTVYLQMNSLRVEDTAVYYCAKGQTAGTFDSWGQGTLVTVSS	880 pM	6/6
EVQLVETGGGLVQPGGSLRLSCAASGFTLNSYGISWVRQAPGKGPEWVSVIYSDGRRTFYGDSVKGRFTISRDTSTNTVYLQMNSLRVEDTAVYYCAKGRVGGTFDSWGQGTLVTVSS	19 nM	5/6
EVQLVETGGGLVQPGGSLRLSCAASGFTLNSYGISWVRQAPGKGPEWVSVIYSDGMRTFYSDSVKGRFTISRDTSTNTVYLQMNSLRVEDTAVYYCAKGSTAGTFDSWGQGTLVTVSS	5.4 nM	5/6
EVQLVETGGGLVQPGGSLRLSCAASGFELNQYGISWVRQAPGKGPEWVSVIYSDGTRTFYSDSVKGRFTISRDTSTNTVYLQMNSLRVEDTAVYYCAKGRAAGTFDSWGQGTLVTVSS	2.8 nM	6/6
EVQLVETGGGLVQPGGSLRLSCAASGFTLDSYGISWVRQAPGKGPEWVSVIYSDGKRTFYGDSVKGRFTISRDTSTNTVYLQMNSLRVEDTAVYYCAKGRTAGTFDSWGQGTLVTVSS	11 nM	6/6

The opening 2 entries, copied out:

{"VH": "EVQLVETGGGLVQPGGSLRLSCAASMFSLNSYGISWVRQAPGKGPEWVSVIYSDGRRTFYGDSVKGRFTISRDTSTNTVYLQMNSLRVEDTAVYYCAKGRAAGTFDHWGQGTLVTVSS", "Kd (apparent)": "nd", "seen in": "0/6"}
{"VH": "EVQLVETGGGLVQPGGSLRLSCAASGFTLDSYGISWVRQAPGKGPEWVSVIYSDGRRTFYGDSIKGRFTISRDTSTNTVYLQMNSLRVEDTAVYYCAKGRAAGTALSWGQGTLVTVSS", "Kd (apparent)": "nd", "seen in": "0/6"}

The range of this assay differs from that of the first round, and the authors advise against merging the two. The authors averaged sequences with at least three values out of six and counted those with two or fewer as poor binders. Empty control strains, which show no peptide, gave a signal in 1% of pairings with all heavy chain designs; the median was 120 nM and 95% of these signals were weaker than 7.0 nM. No background was subtracted.